The record followed here is US20250188110A1, “SPECIFIC SMALL MOLECULE INHIBITORS THAT BLOCK KMT9 METHYLTRANSFERASE ACTIVITY AND FUNCTION” (ALBERT-LUDWIGS-UNIVERSITÄT FREIBURG, priority 2021, published 2025).

By UniProt entry, the sequences of proteins in these tests, tags left out. Residues count along the entry.
UniProt Q9Y5N5, whole entry: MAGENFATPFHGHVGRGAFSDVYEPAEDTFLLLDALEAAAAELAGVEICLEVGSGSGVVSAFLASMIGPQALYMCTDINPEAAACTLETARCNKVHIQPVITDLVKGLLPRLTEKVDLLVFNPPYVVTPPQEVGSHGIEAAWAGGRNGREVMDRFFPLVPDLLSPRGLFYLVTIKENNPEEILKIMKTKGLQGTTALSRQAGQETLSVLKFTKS
UniProt Q9UI30, 1-120 isoform 2 partner: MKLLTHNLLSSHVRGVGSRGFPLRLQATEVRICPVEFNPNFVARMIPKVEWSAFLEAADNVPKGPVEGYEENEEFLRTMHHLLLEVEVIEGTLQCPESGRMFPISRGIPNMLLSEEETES

The target of assay [1] is T1, KMT9 (Homo sapiens, UniProt Q9Y5N5). Kind of assay: KMT9 methyltransferase inhibition assay, MTaseGlo luminescence (from entry 155). As to conditions: read-out: Inhibition (IC50); MTaseGlo procedure (entries from 155); 100 nM KMT9, 5 μM ETF1, 1 μM SAM. As to the method: For the compounds from entry 155 on in Table 1, the following procedure was used to determine IC50 values: The assay was carried out in white, opaque 384-well OptiPlates (PerkinElmer). For IC50 determination, a 2.5x substrate mix (final assay concentrations: 5 μM ETF1, 1 μM SAM and 1x MTaseGlo Reagent), a 2.5x KMT9 solution (final assay concentration 100 nM) and a 5x inhibitor stock 1:1 dilution series (concentration according to the desired range; dilution series was prepared in assay buffer containing 10% DMSO to obtain a final DMSO concentration of 2% in the assay) were prepared. 2 μL of 5x inhibitor stock and 4 μL of 2.5x KMT9 were pipetted, the plate was spun down at 700 rpm for 1 min using a Hettich UNIVERSAL 320 centrifuge and incubated at room temperature (around 25° C.) for 15 min. The reaction was initiated by adding 4 μL of 2.5x substrate mix, the plate was spun down as described before and incubated at 30° C. for 2 h. Afterwards, 10 μL of 2× MTaseGlo Detection solution was added, the plate was centrifuged as described above and incubated for 60 min at room temperature. Luminescence was measured using a PerkinElmer EnVision 2102 Multilabel Reader. Calculation of inhibition and data fitting was carried out as for entries 1-154. described above. […]

The test system of the next assay is PC3M cells. Kind of assay: Inhibition of cell viability, MTT assay, PC3M. As to conditions: 7 days. As to the method:
Inhibition of cell viability (“in vivo (MTT, PC3M cells)”)
MTT assays were performed with the CellTiter 96 Non-Radioactive Cell Proliferation Assay (MTT) kit (G4000, Promega) according to the manufacturer's instructions. Briefly, 100 μl of cell culture medium containing inhibitor were dispensed per well into 96-well tissue culture dishes and allowed to equilibrate for 30 min at room temperature. 100 μl of cell suspension were added per well (resulting in 300 cells per well). Cells were allowed to adhere for 30 min at room temperature and then incubated at 37° C. (5% CO2) in a CellXpert incubator (Eppendorf). After 4 days, the medium was replaced with 100 μl of fresh cell culture medium containing inhibitor followed by incubation for additional 3 days. At the end of the culture period, 15 μl of Dye Solution per well were added, the plate incubated for 4 hours at 37° C. followed by addition of 100 μl of Solubilization Solution/Stop Mix per well and incubation for 1 hour at 37° C. Finally, the content of the 96-well dish was homogenized by pipetting up and down and assayed at 570 nm and 650 nm using a NanoQuant Infinite M200 Pro plate reader (TECAN). Absorption at 650 nm (background) was substracted from absorption at 570 nm and the resulting values were normalized to those of the DMSO control. […]
Background: Tetrazolium assays rely on reduction of a dye to a coloured formazan, in cell work by metabolically active cells.

Assay [2] concerns the target T1, KMT9. Kind of assay: KMT9 thermal shift assay (SyproOrange). As to conditions: 500 µM compound, 2 μM KMT9. As to the method:
The assay was carried out in 96-well Hard-Shell PCR plates (Bio-Rad Laboratories Inc.). Assay buffer consisted of 50 mM BTP, 1 mM MgCl2 and 1 mM DTT at a pH of 8.5 (adjusted using 1 M HCl and 1 M NaOH). 20X inhibitor stock (in DMSO), 2X enzyme stock and 4X SyproOrange (SO) stock (both in assay buffer) were prepared. 1 μL of 20X compound, 4 μL of assay buffer, 10 μL of 2X KMT9 and 5 μL of 4X SO were pipetted. For the no-compound control, 20X inhibitor stock was replaced by DMSO. The final volume was 20 μL. The plate was spun down at 700 rpm for 1 min using a Hettich UNIVERSAL 320 centrifuge and incubated at 25° C., shaking at 600 rpm. After incubation, the plate was spun down for 1 min at 700 rpm and measurement was conducted using a CFX96 Touch Real-Time PCR Detection System (Bio-Rad Laboratories Inc.). The plate was equilibrated at 20° C. for 4 min and then heated stepwise at a rate of 1° C. per 15 s until 95° C. After every step, fluorescence was measured in FRET mode. Calculation of melting points was conducted by a Boltzman sigmoidal model using GraphPad Prism 7.0. […]

Assay [3] has as its target T1, KMT9. Kind of assay: Microscale thermophoresis (MST) KMT9 binding. The settings on record: read-out: MST (Kd); His-tag labelled KMT9 20 nM. As to the method:
To determine the binding affinity of the compounds according to the present invention and KMT9, microscale thermophoresis (MST) analysis was performed with a NanoTemper Monolith NT.115 instrument (NanoTemper Technologies GmbH). KMT9 was labelled with a RED-Tris-NTA labelling kit (NanoTemper Technologies GmbH) based on the manufacturer's instructions. Buffer including 25 mM HEPES (pH 7.5), 100 mM NaCl, 1 mM DTT and 0.05% Tween was used for the reaction buffer. Varying concentrations of the tested compounds of formula (I) as indicated in Table 1 were titrated against His-tag labelled KMT9 proteins (20 nM). Samples were loaded into standard Capillaries (NanoTemper Technologies GmbH) and MST measurements were performed using 40% MST power and 100% LED power. For each set of binding experiments, MST measurement was carried out with Binding Affinity module in MO.Control program under Nano-RED Excitation. Datasets were processed with the MO.Affinity Analysis software (NanoTemper Technologies GmbH). […]
(In general: MST reads how a fluorescent partner responds to local heating, with and without ligand.)

pIC50, pKd: −log10 of the molar value.

Take `Nc1nc(Cl)nc2c1c(-c1nc(Cc3ccccc3)cs1)cn2[C@@H]1C[C@H](C2CCN(CC3CCOC3)CC2)[C@@H](O)[C@H]1O` (stereo partly shown): the pIC50 on KMT9 [1] is 6.00 to 7.00. The “in vivo (MTT, PC3M Cells), cell viability effect” value in the assay on PC3M cells is on record as “### (an effect at less than or equal to 1 μM)”. Further, the “Thermal shift (ΔTm)” value at KMT9 [2] is “+++ (a ΔTm of greater than 15 K and less than or equal to 20 K (15 K<ΔTm≤20 K))”. At KMT9 [3], the negative-log Kd (pKd) was > 8.00.

By pIC50 is commonly meant the negative decadic logarithm of the IC50, by convention in mol/L. For orientation: pKd means the negative decadic logarithm of the Kd, by convention in mol/L.
